System: HepG2 cells
Description: HepG2 cells (Order No. HB-8065, Lot. 58483209, ATCC, Manassas, USA) were cultured in DMEM/F12 with L-Glutamine and 15 mM Hepes supplemented with 10% (v/v) FBS, 1% (v/v) penicillin (10 kU/ml)/streptomycin (10 mg/ml) solution, 0.1% (v/v) gentamicin (50 mg/ml), and 1 mM sodium pyruvate at 37° C. and 5% CO2 in culture flasks. Depending on the experiment, an appropriate number of cells were seeded onto plates after detaching of the cells using trypsin and cells were cultured at 37° C. and 5% CO2 for 24 h prior to treatment. All experiments were performed three times with cells of passages 4-20.
Cells were seeded onto black Poly-D-Lysin coated 96-well-plates (BD Biocoat, Franklin Lakes, USA) (0.02×10^6 cells/well) and left 24 h for adherence and then treated with test compounds at a maximum concentration of 1 mM which is recommended by the ICH S2(R1) guideline (EMA, 2011). For each compound, nine concentrations were tested with 2-fold serial dilutions. DMSO 1% (v/v) served as vehicle control for the experiments. The treatment procedure was different for direct-genotoxic and pro-genotoxic compounds. The treatment for direct genotoxic compounds was ongoing and was repeated daily over 48 h. Pro-genotoxic compounds were incubated for 6 h together with metabolic activation system (to limit the cytotoxic effect of the S9-mixture). After this period, cells were washed with cell media followed by 18-repeated daily over 48 h. The metabolic activation system used consisted of the following components and concentrations: 8 mM MgCl2, 32.8 mM KCl, 12 mM NADPH, 124 mM phosphate buffer and 2500 pmol/ml cytochrome P450 (CYP) content in the pre-mixture corresponding to 2.4 mM MgCl2, 9.8 mM KCl, 3.6 mM NADPH, 37.2 mM phosphate buffer, and 750 pmol/ml CYP as final concentrations after dilution 1:3.33 with cell culture media.
After treatment, cells were rinsed with PBS (Gibco Invitrogen, Karlsruhe, Germany), and then stained with 10 μM CellTracker Green 5-Chloromethylfluorescein Diacetate (CMFDA) (Invitrogen, Karlsruhe, Germany) in cell culture media for 30 min. CMFDA is per se non-fluorescent and is hydrolyzed by esterase in viable cells to a fluorescent-dye. The reaction with thiol groups leads to a cell-impermeable fluorescent-dye-adduct. The esterase activity can be used as an indicator for viability of cells (Papadopoulos et al., 1994, J Immunol Methods 177, 101-11). Afterwards, cells were washed with PBS and fixed with 3.7% Formaldehyde (Sigma-Aldrich, Taufkirchen, Germany) in PBS for 20 min. After that, cells were washed with PBS and blocked and permeabilized with 2% donkey serum (Millipore, Schwalbach, Germany) and 0.25% Triton X-100 (Sigma-Aldrich, Taufkirchen, Germany) in PBS for 30 min. Primary antibodies were diluted in Blocking/Permeabilization solution to final concentrations of 4 μg/ml anti-p-Chk1 (Ser345) goat polyclonal antibody IgG (santa cruz, Santa Cruz, USA), 4 μg/ml anti-p-ATM (Ser1981) mouse monoclonal antibody IgG1K (Millipore, Schwalbach, Germany) and added to the cells. After incubation for 16-18 h, cells were washed with 0.05% Tween 20 (Calbiochem, Darmstadt, Germany) in PBS, and the secondary antibody/16 μM Hoechst staining solution Blocking/Permeabilization solution was added. Secondary antibodies were diluted 1:400 (Alexa Fluor 555 donkey anti-goat, Alexa Fluor 647 donkey anti-mouse, Invitrogen, Karlsruhe, Germany). After an incubation of 1 h, followed by two additional washing steps with 0.05% Tween 20, cells were washed with PBS and finally PBS was added and cells were measured.
Image acquisition was performed on the ArrayScan VTI HCS Reader (Cellomics, Pittsburgh, USA) using a 20× objective. To detect enough cells, 50 images starting at the middle of each well were gathered.
• Channel 1: selected cell count per valid field • Channel 2: CMFDA cytoplasm average intensity • Channel 3: p-Chk1 (Ser345) nucleus average intensity • Channel 4: p-ATM (Ser1981) nucleus average intensity

Substance | CMFDA +S9 highest conc. <50% cytotox. over control [µM] | CMFDA −S9 highest conc. <50% cytotox. over control [µM] | SCC +S9 highest conc. <50% cytotox. over control [µM] | SCC −S9 highest conc. <50% cytotox. over control [µM]
Trisodium EDTA trihydrate | 1000 | 1000 | 1000 | 500
Tert-butyl alcohol | 1000 | 1000 | 1000 | 1000
